This note sets out measurements from patent US20140323418A1 (published 2014).

As usually defined, the IC50 is the point on the concentration scale where inhibition reaches its midpoint.

This assay concerns the target full length active recombinant SYK enzyme (Homo sapiens, UniProt P43405). Briefly: Inhibition of Syk tyrosine phosphorylation activity (LANCE TR-FRET kinase assay).
Take `NC(=O)c1cnc(N[C@@H]2CCCCC2=O)nc1Nc1cccc(-n2nccn2)c1` [Example 164, (R)-4-(3-(2H-1,2,3-triazol-1-yl)phenylamino)-2-(2-oxocyclohexylamino)pyrimidine-5-carboxamide]: the IC50 was 100 to 1000 nM.

On to `Cc1cccc(Nc2nc(N[C@@H]3[C@H](F)CCC[C@@H]3N)ncc2C(N)=O)c1` (racemic) [Example 173], for which the IC50 lay within 100 to 1000 nM.

As for `NC(=O)c1cnc(N[C@@H]2CCCC[C@@H]2N=O)nc1Nc1cccc(-n2nccn2)c1` [Example 176, 4-(3-(2H-1,2,3-triazol-1-yl)phenylamino)-2-((1R,2S)-2-nitrosocyclohexylamino)pyrimidine-5-carboxamide], the IC50 was 100 to 1000 nM.
